Literature values, collected in patent US7553853B2, “Solid-state montelukast” (Synthon BV, priority 2003, dated 2009).

Columns and labels:
[1] = cited from earlier work
[2] = a precipitate may be formed after certain time; cited from earlier work

In the case of “Montelukast monosodium salt [Montelukast sodium]”, the hygroscopicity ([1]; known property of the powder) is listed as “hygroscopic”, the water absorbed ([1]; known solid sodium salt) is listed as “up to 3 equivalents of water” and the “stability in aqueous solutions” value [2] is listed as “not stable”.
